From PubChem BioAssay AID652036 (The Scripps Research Institute Molecular Screening Center, 2013)
Only a part is listed here, and it is no random draw. Calls of active or inactive are those of the source. No stated cut-off is given here; in the data, active means inhibition above about 19%; inactive means the rest.

The compounds below were run on T-cell receptor (TCR)-CD3 interaction, human (assay: TCR-CD3 interaction inhibitors, retest, confirmation, biochemical, fluorescence, TAMRA-labeled TCR probe (AID 652036)). Settings: TAMRA-labeled TCR probe fluorescence binding assay; at 9.4 µM; stronger effect = higher value.
In the case of `Nc1cccc2c([As](=O)(O)O)cccc12`, the inhibition was active: 27.1%.
